# Ab-95 light chain CDR variants: yeast mating affinities

Values reported by Engelhart et al. 2022, doi:10.1038/s41597-022-01779-4 (FLAb copy).

Antigen: PDVDLGDISGINAS, a 14-residue peptide of the SARS-CoV-2 spike HR2 region.

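Phage display of a naive human antibody library on the peptide gave the parent. AAYL52 was designed without a model: most single CDR substitutions and a random sample of double and triple ones. AlphaSeq pools MATa yeast showing the antibodies with MATalpha yeast showing the peptide. After mating in shaken culture at 30 °C for 16 h, diploids were selected and their barcode pairs sequenced. Scores were corrected for input abundance and mapped to Kd with protein pairs of known affinity run in the same pool. Mating was done three times.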

Parent scFv Ab-95: VH joined to VL by the linker GGGGSGGGGSGGGGS. Changes lie in the light chain CDRs alone.
VH: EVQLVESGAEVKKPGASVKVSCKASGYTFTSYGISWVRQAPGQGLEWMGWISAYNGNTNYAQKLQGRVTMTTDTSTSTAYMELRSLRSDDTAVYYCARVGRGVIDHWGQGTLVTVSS
VL: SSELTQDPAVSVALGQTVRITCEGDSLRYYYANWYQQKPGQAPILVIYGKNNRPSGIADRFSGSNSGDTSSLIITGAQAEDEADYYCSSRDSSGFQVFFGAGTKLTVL

Sequences are complete VL domains. Kd is apparent (estimated from mating counts) and averaged on the log scale over replicates with a signal. Smaller is tighter. Where no diploid with the target was found in any replicate, the entry reads "not detected": below detection, most likely a poor binder, though not proof of it. Empty control strains, which show no peptide, gave a signal in 28% of pairings with library AAYL52; the median was 8.2 µM and 95% of these signals were weaker than 800 nM. No background was subtracted. For each scFv, signals with the empty controls are counted beside the result.

| Kd (apparent) | seen in | empty controls | VL |
|---|---|---|---|
| 39 µM | 3 of 3 | 7 of 9 | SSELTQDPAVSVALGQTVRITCEGDSLRYYYANWYQQKPGQAPILVIYGKNNSPSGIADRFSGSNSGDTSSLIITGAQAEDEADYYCSSRDSSGFQSIFGAGTKLTVL |
| 3.0 µM | 1 of 3 | 2 of 9 | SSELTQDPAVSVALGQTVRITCEGDSSRYYYANWYQQKPGQAPILVIYGKNNRPSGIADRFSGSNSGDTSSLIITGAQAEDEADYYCSFRDSSGFQVFFGAGTKLTVL |
| 530 nM | 3 of 3 | 2 of 9 | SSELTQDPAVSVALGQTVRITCEFDSLRYYKANWYQQKPGQAPILVIYGKNNRPSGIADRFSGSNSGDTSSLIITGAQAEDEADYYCSSRDSSGFQVFFGAGTKLTVL |
| 740 nM | 3 of 3 | 2 of 9 | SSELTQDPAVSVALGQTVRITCEGDTLRQYYANWYQQKPGQAPILVIYGKNNRPSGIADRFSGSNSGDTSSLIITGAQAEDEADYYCSSRDSLGFQVFFGAGTKLTVL |
| 1.2 µM | 3 of 3 | 0 of 9 | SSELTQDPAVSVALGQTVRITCEGDSLRNYYANWYQQKPGQAPILVIYGNNNRPSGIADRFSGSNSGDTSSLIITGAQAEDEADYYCSSRDSVGFQVFFGAGTKLTVL |
| 170 nM | 3 of 3 | 2 of 9 | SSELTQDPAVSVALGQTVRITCEGKSLRYYYANWYQQKPGQAPILVIYGKNNRPSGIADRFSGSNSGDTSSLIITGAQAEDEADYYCSSRDSSGVQVFFGAGTKLTVL |
| 120 µM | 2 of 3 | 3 of 9 | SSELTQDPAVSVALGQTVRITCEGDSLRYYYWNWYQQKPGQAPILVIYGKCNRESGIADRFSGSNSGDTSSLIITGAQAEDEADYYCSSRDSSGFQVFFGAGTKLTVL |
| 17 µM | 2 of 3 | 2 of 9 | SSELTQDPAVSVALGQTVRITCEGASLRYYYANWYQQKPGQAPILVIYGKNNRPSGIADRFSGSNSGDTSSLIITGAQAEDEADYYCSSRDSHTFQVFFGAGTKLTVL |
| 91 µM | 1 of 3 | 2 of 9 | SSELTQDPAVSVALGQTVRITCEGDSCRYYYANWYQQKPGQAPILVIYNKNNRPSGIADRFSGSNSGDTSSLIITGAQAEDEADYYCSSRESSGFQVFFGAGTKLTVL |
| 35 µM | 2 of 3 | 5 of 9 | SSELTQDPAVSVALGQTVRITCEQDSLRYYCANWYQQKPGQAPILVIYGKNNRPSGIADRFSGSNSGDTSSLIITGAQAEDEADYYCSSRDSSGPQVFFGAGTKLTVL |
| 16 µM | 1 of 3 | 1 of 9 | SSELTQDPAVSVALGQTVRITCEGDWLRYYYANWYQQKPGQAPILVIYGKNNRPPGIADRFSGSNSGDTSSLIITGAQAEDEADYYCQSRDSSGFQVFFGAGTKLTVL |
| 39 µM | 1 of 3 | 3 of 9 | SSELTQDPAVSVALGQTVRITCEGDSLRYYYAQWYQQKPGQAPILVIYGKNVRPSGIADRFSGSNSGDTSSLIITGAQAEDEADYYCSSRDSSGFQVWFGAGTKLTVL |
| 62 nM | 3 of 3 | 3 of 9 | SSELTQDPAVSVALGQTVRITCEGDSLRYYGANWYQQKPGQAPILVIYGKHNRPSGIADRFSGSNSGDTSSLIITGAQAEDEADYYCSSRDSSGFQVFFGAGTKLTVL |
| 24 nM | 3 of 3 | 3 of 9 | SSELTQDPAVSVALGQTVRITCEGDSLRYGWANWYQQKPGQAPILVIYGLNNRPSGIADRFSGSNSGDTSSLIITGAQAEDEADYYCSSRDSSGFQVFFGAGTKLTVL |
| 130 nM | 3 of 3 | 4 of 9 | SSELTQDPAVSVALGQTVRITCEGDSLRYYYANWYQQKPGQAPILVIYGKNNRPSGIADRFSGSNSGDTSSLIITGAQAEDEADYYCFSADSSGFQVFFGAGTKLTVL |
| 190 nM | 3 of 3 | 0 of 9 | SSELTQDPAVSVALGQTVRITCEGDCLRYEAANWYQQKPGQAPILVIYGKNNRPSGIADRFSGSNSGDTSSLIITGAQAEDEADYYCSSRDSSGFQVFFGAGTKLTVL |
| 50 µM | 3 of 3 | 3 of 9 | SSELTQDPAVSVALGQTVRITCRGDSLRYFYANWYQQKPGQAPILVIYGKNNRPSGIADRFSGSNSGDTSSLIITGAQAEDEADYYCSSRDSSVFQVFFGAGTKLTVL |
| not detected | 0 of 3 | 3 of 9 | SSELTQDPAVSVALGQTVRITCELCSLRYYYANWYQQKPGQAPILVIYGKTNRPSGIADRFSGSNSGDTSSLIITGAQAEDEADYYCSSRDSSGFQVFFGAGTKLTVL |

Extract of 3 entries:

VL,Kd (apparent),seen in,empty controls
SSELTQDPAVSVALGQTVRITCEGDSCRYYYANWYQQKPGQAPILVIYNKNNRPSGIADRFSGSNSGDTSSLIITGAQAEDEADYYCSSRESSGFQVFFGAGTKLTVL,91 µM,1 of 3,2 of 9
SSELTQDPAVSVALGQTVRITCEGDSLRNYYANWYQQKPGQAPILVIYGNNNRPSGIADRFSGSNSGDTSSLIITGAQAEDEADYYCSSRDSVGFQVFFGAGTKLTVL,1.2 µM,3 of 3,0 of 9
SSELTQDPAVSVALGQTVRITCEGASLRYYYANWYQQKPGQAPILVIYGKNNRPSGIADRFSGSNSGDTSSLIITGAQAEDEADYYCSSRDSHTFQVFFGAGTKLTVL,17 µM,2 of 3,2 of 9